Source: patent US4593119A, “Method for treatment or prophylaxis of cardiac disorders” (American Hospital Supply Corporation, priority 1982, dated 1986)

Protein sequences, listed by entry. Tags and fused reporters are not part of them.
UniProt Q8K4Z4, whole entry: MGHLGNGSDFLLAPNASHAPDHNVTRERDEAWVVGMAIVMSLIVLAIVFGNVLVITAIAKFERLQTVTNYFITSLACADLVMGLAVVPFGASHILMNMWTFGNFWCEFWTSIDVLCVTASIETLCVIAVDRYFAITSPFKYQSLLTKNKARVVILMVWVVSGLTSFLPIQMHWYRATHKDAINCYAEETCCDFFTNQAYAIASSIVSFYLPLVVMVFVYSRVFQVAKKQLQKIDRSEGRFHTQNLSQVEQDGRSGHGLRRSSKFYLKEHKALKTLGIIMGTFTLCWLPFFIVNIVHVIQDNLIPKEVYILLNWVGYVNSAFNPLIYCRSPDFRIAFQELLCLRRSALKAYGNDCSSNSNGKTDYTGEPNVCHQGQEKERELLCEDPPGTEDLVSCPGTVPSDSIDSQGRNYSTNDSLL

Target: T1, β-adrenergic receptors, guinea pig tracheal strips (Cavia porcellus, UniProt Q8K4Z4)
T1 construct: Spiral strips of guinea pig trachea; from tissue; host or cells: guinea pig trachea, spiral strips
Assay: β-blocking activity in vitro, guinea pig tracheal strips (tension response to isoproterenol)
Type: cell-based
Conditions: pA2 = -log KB, vs isoproterenol, 60-minute incubation
Protocol: Each tissue was suspended between a fixed glass rod and a Statham Universal Transducer connected to a Beckman recorder. Atria were allowed to beat spontaneously under a loading tension of approximately 0.5 g. Changes in rate of response to isoproterenol, a standard β-receptor agonist, were measured in the absence and presence of test compounds. Spiral strips of guinea pig trachea were suspended under 5 g resting tension and incubated with phentolamine, tropolone, and cocaine. Active tension was generated by addition of carbachol (3.0×10^-7 M) and decreases in tension in response to isoproterenol were quantitated. Cumulative concentration response curves were produced with isoproterenol both before and after 60-minute incubation of test compounds with atria and trachea. Compounds with β-blocking activitiy shifted concentration response curves to the right. […] The degree of cardioselectivity was estimated from the ratio KB trachea/KB atria 10(pA2 Atria -pA^2 Trachea). A ratio greater than one indicates cardioselectivity. […]

- pA2 Trachea: 4.9
SMILES: COC(=O)CCc1ccc(OCC(O)CNCc2ccccc2)cc1 (stereo not shown) [VII]
